Measured values reported in patent US11583507B2, “Direct AMPK activator compounds” (SOCIETE DES PRODUITS NESTLE S.A., priority 2018, dated 2023).

Columns and labels:
C2C12 AMPKα1α2+/+ cells = experiment: Glucose uptake (3H-2-deoxyglucose) in differentiated C2C12 AMPKα1α2+/+ cells; type: cell-based, murine
Description: (§1) In order to test whether the ability of Lusianthridin to increase glucose uptake in C2C12 myotubes is dependent on AMPK, we generated C2C12 cells lacking both isoforms of the catalytic AMPKα subunit, AMPKα1α2−/−. C2C12 AMPK α1α2 double knockout cell lines were generated by transient transfection of wild type cells with plasmids containing Cas9 enzyme linked to green fluorescent protein expression and Cas9 guide RNA sequences targeting the murine AMPK α1 subunit (sc-430618, SantaCruz) and the murine AMPK α2 subunit (sc-430803, SantaCruz). Cells positive for green fluorescent protein expression were single cell sorted by flow cytometry into 96-well plates containing growth medium and analysed for loss of AMPK signaling following expansion of the clones.
(§2) Differentiated C2C12 AMPKα1α2+/+ and AMPKα1α2−/− cells were treated with either vehicle (0.2% DMSO), 30 μM or 100 μM Lusianthridin for 1 h at 37° C. In addition, the insulin-dependent/AMPK-independent glucose uptake was also assessed by treating C2C12 cells with 300 nM Insulin for 1 h in the presence or absence of the 15 nM Wortmanin, an inhibitor of insulin-signalling. […]
(§3) Glucose uptake was determined by monitoring the uptake of 3H-2-deoxyglucose into cells. […] Cells were lysed and the quantity of ^3H determined in these samples using a scintillation counter. […]

C2C12 AMPKα1α2−/− cells = experiment: Glucose uptake (3H-2-deoxyglucose) in differentiated C2C12 AMPKα1α2−/− cells; type: cell-based, murine; settings: 30 or 100 μM Lusianthridin, 300 nM Insulin, 1 h at 37° C
Description: as §1, §2, §3

## Insulin [reference compound]
C2C12 AMPKα1α2+/+ cells; C2C12 AMPKα1α2+/+, 30 or 100 μM Lusianthridin, 300 nM Insulin, 1 h at 37° C
  glucose uptake (fold change relative to control): increase in glucose uptake
C2C12 AMPKα1α2+/+ cells; in the presence of 15 nM Wortmanin (1 h pre-incubation), 100 μM Lusianthridin or 300 nM Insulin, 1 h
  effect of Wortmanin on stimulated glucose uptake: abolished
C2C12 AMPKα1α2−/− cells
  glucose uptake (fold change relative to control): unaffected
